Data from US20250214964A1 (published 2025).

Columns and labels:
[1] = system: promastigote forms of L. donovani (MHOM/ET/67/HU3); test: L. donovani promastigotes, MTT method; type: cell-based
[2] = system: intracellular amastigotes of L. donovani (strain MHOM/ET/67/HU3); test: L. donovani intracellular amastigotes in THP-1-derived macrophages, resazurin method; type: cell-based

SMILES: N=C(Nc1ccc(CCc2ccc(NC(=N)c3ccccn3)cc2)cc1)c1ccccn1 [Compound 17, N,N″-(ethane-1,2-diylbis(4,1-phenylene))dipicolinimidamide]
- activity on promastigote forms of L. donovani, range in words [1]: micromolar to submicromolar range
- activity on intracellular amastigote forms of L. donovani, range in words [2]: micromolar to submicromolar range
